Earlier results in patent US20030073069A1, “Drug rescue by redesign of ADMET/PK properties” (priority 2001, published 2003).

Tested on: P450
Settings: induction of a P450

corticotropin
No. of currently known drug interactions that involve the compound, Induction: 9
